Source: PMC11346428, “Biophysical and structural analyses of the interaction between the SHANK1 PDZ domain and an internal SLiM” (Biochemical Journal, 2024)

Molecular target: T1, SHANK1 PDZ domain (656–762) (Homo sapiens, UniProt Q9Y566)
T1 construct: Human SHANK1 PDZ domain (656–762) was prepared as described previously; GST (N, cleaved yes); made in house; host or cells: E. coli BL21 Gold (pGEX-6P-2)
T1 sequence (Q9Y566 656-762): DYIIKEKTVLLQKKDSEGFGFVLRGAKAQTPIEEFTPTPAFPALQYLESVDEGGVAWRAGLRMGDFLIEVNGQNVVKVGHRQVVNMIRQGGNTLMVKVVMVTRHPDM
Assay: Isothermal titration calorimetry (ITC)
Type: binding

A Kd of 1.6 µM was found for `CC(=O)N[C@@H](CCC(=O)O)C(=O)N[C@@H](C)C(=O)N[C@@H](CCC(N)=O)C(=O)N[C@H](C(=O)N[C@@H](CCCNC(=N)N)C(=O)N[C@@H](CC(C)C)C(=O)O)[C@@H](C)O` [GKAP PBM, reference compound] in this work.
